From patent US20150030697, “Treatments for gastrointestinal disorders” (published 2015)

Tested on: T1, Peptide 1
T1 sequence: CCSLCCNPACTGCY

Potato acid phosphatase (PoAP)
Peptide 1 Dephospho (%), LC-MS after phosphatase treatment, pH 5: 22.1%
Peptide 1 Remaining (%), LC-MS after phosphatase treatment, pH 5: 77.8%
